Data: US20170106017A1 (priority 2014, published 2017)

What was measured:
[1] = test system: ALS patients
[2] = test system: ALS patients; remark: listed apart in the source
[3] = single iv dose 0.2 mg/kg (N = 6)
[4] = single iv dose 0.8 mg/kg (N = 6)
[5] = single iv dose 1.6 mg/kg (N = 6)
[6] = single iv dose 3.2 mg/kg (N = 6)

sodium chlorite [NP001]
8: TEAE Fatigue, patients n ([1]; 1 mg/kg (N = 49))
No clinically relevant mean changes: mean changes from baseline in vital signs or ECG parameters between treatment groups ([1]; 1 mg/kg and 2 mg/kg vs placebo)
(33.3) %: TEAE Infusion site pain, patients % ([1]; 2 mg/kg (N = 45))
15: TEAE Infusion site pain, patients n ([1]; 2 mg/kg (N = 45))
(10.2) %: TEAE Constipation, patients % ([1]; 1 mg/kg (N = 49)) | TEAE Diarrhea, patients % ([1]; 1 mg/kg (N = 49)) | TEAE Muscle spasms, patients % ([1]; 1 mg/kg (N = 49))
11: TEAE Headache, patients n ([1]; 1 mg/kg (N = 49))
(14.3) %: TEAE Cough, patients % ([1]; 1 mg/kg (N = 49))
(6.7) %: TEAE Contusion, patients % ([1]; 2 mg/kg (N = 45)) | TEAE Edema peripheral, patients % ([1]; 2 mg/kg (N = 45)) | TEAE Pain in extremity, patients % ([1]; 2 mg/kg (N = 45))
(2.0) %: TEAE Back pain, patients % ([1]; 1 mg/kg (N = 49)) | TEAE Muscular weakness, patients % ([1]; 1 mg/kg (N = 49))
(8.9) %: TEAE Constipation, patients % ([1]; 2 mg/kg (N = 45)) | TEAE Diarrhea, patients % ([1]; 2 mg/kg (N = 45)) | TEAE Dysphagia, patients % ([1]; 2 mg/kg (N = 45)) | TEAE Rash, patients % ([1]; 2 mg/kg (N = 45))
(15.6) %: TEAE Cough, patients % ([1]; 2 mg/kg (N = 45)) | TEAE Nausea, patients % ([1]; 2 mg/kg (N = 45))
0: TEAE Contusion, subjects [2, 4] | TEAE Facial pain, subjects [2, 4] | TEAE Fatigue, subjects [2, 4] | TEAE Facial pain, subjects [2, 5] | TEAE Fall, subjects [2, 5] | TEAE Contusion, subjects [2, 6] | TEAE Fatigue, subjects [2, 6]
7: TEAE Cough, patients n ([1]; 1 mg/kg (N = 49)) | TEAE Cough, patients n ([1]; 2 mg/kg (N = 45)) | TEAE Nausea, patients n ([1]; 2 mg/kg (N = 45)) | Subjects with a TEAE that Occurred in ≧2 Subjects in the All NP001 Doses or Placebo Groups ([2]; All NP001 Doses (N = 24))
9: TEAE Infusion site extravasation, patients n ([1]; 1 mg/kg (N = 49)) | TEAE Infusion site pain, patients n ([1]; 1 mg/kg (N = 49)) | TEAE Dizziness, patients n ([1]; 2 mg/kg (N = 45)) | TEAE Headache, patients n ([1]; 2 mg/kg (N = 45))
(22.2) %: TEAE Infusion site extravasation, patients % ([1]; 2 mg/kg (N = 45))
6: TEAE Infusion site erythema, patients n ([1]; 1 mg/kg (N = 49)) | TEAE Nasopharyngitis, patients n ([1]; 1 mg/kg (N = 49)) | TEAE Nausea, patients n ([1]; 1 mg/kg (N = 49)) | TEAE Infusion site erythema, patients n ([1]; 2 mg/kg (N = 45)) | TEAE Muscle contractions involuntary, patients n ([1]; 2 mg/kg (N = 45)) | TEAE Nasopharyngitis, patients n ([1]; 2 mg/kg (N = 45))
5: TEAE Constipation, patients n ([1]; 1 mg/kg (N = 49)) | TEAE Diarrhea, patients n ([1]; 1 mg/kg (N = 49)) | TEAE Muscle spasms, patients n ([1]; 1 mg/kg (N = 49)) | TEAE Back pain, patients n ([1]; 2 mg/kg (N = 45)) | TEAE Muscular weakness, patients n ([1]; 2 mg/kg (N = 45))
(20.0) %: TEAE Dizziness, patients % ([1]; 2 mg/kg (N = 45)) | TEAE Headache, patients % ([1]; 2 mg/kg (N = 45))
3: TEAE Anxiety, patients n ([1]; 1 mg/kg (N = 49)) | TEAE Contusion, patients n ([1]; 1 mg/kg (N = 49)) | TEAE Edema peripheral, patients n ([1]; 1 mg/kg (N = 49)) | TEAE Muscle contractions involuntary, patients n ([1]; 1 mg/kg (N = 49)) | TEAE Pain in extremity, patients n ([1]; 1 mg/kg (N = 49)) | TEAE Contusion, patients n ([1]; 2 mg/kg (N = 45)) | TEAE Edema peripheral, patients n ([1]; 2 mg/kg (N = 45)) | TEAE Pain in extremity, patients n ([1]; 2 mg/kg (N = 45))
(32.7) %: TEAE Fall, patients % ([1]; 1 mg/kg (N = 49))
17: TEAE Fall, patients n ([1]; 2 mg/kg (N = 45))
(12.2) %: TEAE Infusion site erythema, patients % ([1]; 1 mg/kg (N = 49)) | TEAE Nasopharyngitis, patients % ([1]; 1 mg/kg (N = 49)) | TEAE Nausea, patients % ([1]; 1 mg/kg (N = 49))
2: TEAE Dysphagia, patients n ([1]; 1 mg/kg (N = 49)) | TEAE Infusion site swelling, patients n ([1]; 1 mg/kg (N = 49)) | TEAE Nasal congestion, patients n ([1]; 1 mg/kg (N = 49)) | TEAE Anxiety, patients n ([1]; 2 mg/kg (N = 45)) | TEAE Infusion site swelling, patients n ([1]; 2 mg/kg (N = 45)) | TEAE Muscle spasms, patients n ([1]; 2 mg/kg (N = 45)) | TEAE Nasal congestion, patients n ([1]; 2 mg/kg (N = 45)) | TEAE Contusion, subjects ([2]; All NP001 Doses (N = 24)) | TEAE Facial pain, subjects ([2]; All NP001 Doses (N = 24)) | TEAE Fatigue, subjects ([2]; All NP001 Doses (N = 24)) | Subjects with a TEAE that Occurred in ≧2 Subjects in the All NP001 Doses or Placebo Groups [2, 3] | Subjects with a TEAE that Occurred in ≧2 Subjects in the All NP001 Doses or Placebo Groups [2, 5] | Subjects with a TEAE that Occurred in ≧2 Subjects in the All NP001 Doses or Placebo Groups [2, 6] | TEAE Fall, subjects [2, 6]
(11.1) %: TEAE Back pain, patients % ([1]; 2 mg/kg (N = 45)) | TEAE Muscular weakness, patients % ([1]; 2 mg/kg (N = 45))
4: TEAE Dizziness, patients n ([1]; 1 mg/kg (N = 49)) | TEAE Rash, patients n ([1]; 1 mg/kg (N = 49)) | TEAE Constipation, patients n ([1]; 2 mg/kg (N = 45)) | TEAE Diarrhea, patients n ([1]; 2 mg/kg (N = 45)) | TEAE Dysphagia, patients n ([1]; 2 mg/kg (N = 45)) | TEAE Rash, patients n ([1]; 2 mg/kg (N = 45)) | TEAE Fall, subjects ([2]; All NP001 Doses (N = 24))
(4.1) %: TEAE Dysphagia, patients % ([1]; 1 mg/kg (N = 49)) | TEAE Infusion site swelling, patients % ([1]; 1 mg/kg (N = 49)) | TEAE Nasal congestion, patients % ([1]; 1 mg/kg (N = 49))
(16.3) %: TEAE Fatigue, patients % ([1]; 1 mg/kg (N = 49))
(35.6) %: TEAE Fatigue, patients % ([1]; 2 mg/kg (N = 45))
(6.1) %: TEAE Anxiety, patients % ([1]; 1 mg/kg (N = 49)) | TEAE Contusion, patients % ([1]; 1 mg/kg (N = 49)) | TEAE Edema peripheral, patients % ([1]; 1 mg/kg (N = 49)) | TEAE Muscle contractions involuntary, patients % ([1]; 1 mg/kg (N = 49)) | TEAE Pain in extremity, patients % ([1]; 1 mg/kg (N = 49))
10: TEAE Infusion site extravasation, patients n ([1]; 2 mg/kg (N = 45))
(13.3) %: TEAE Infusion site erythema, patients % ([1]; 2 mg/kg (N = 45)) | TEAE Muscle contractions involuntary, patients % ([1]; 2 mg/kg (N = 45)) | TEAE Nasopharyngitis, patients % ([1]; 2 mg/kg (N = 45))
(37.8) %: TEAE Fall, patients % ([1]; 2 mg/kg (N = 45))
1: TEAE Back pain, patients n ([1]; 1 mg/kg (N = 49)) | TEAE Muscular weakness, patients n ([1]; 1 mg/kg (N = 49)) | TEAE Contusion, subjects [2, 3] | TEAE Facial pain, subjects [2, 3] | TEAE Fall, subjects [2, 3] | TEAE Fatigue, subjects [2, 3] | Subjects with a TEAE that Occurred in ≧2 Subjects in the All NP001 Doses or Placebo Groups [2, 4] | TEAE Fall, subjects [2, 4] | TEAE Contusion, subjects [2, 5] | TEAE Fatigue, subjects [2, 5] | TEAE Facial pain, subjects [2, 6]
(4.4) %: TEAE Anxiety, patients % ([1]; 2 mg/kg (N = 45)) | TEAE Infusion site swelling, patients % ([1]; 2 mg/kg (N = 45)) | TEAE Muscle spasms, patients % ([1]; 2 mg/kg (N = 45)) | TEAE Nasal congestion, patients % ([1]; 2 mg/kg (N = 45))
16: TEAE Fall, patients n ([1]; 1 mg/kg (N = 49)) | TEAE Fatigue, patients n ([1]; 2 mg/kg (N = 45))
(8.2) %: TEAE Dizziness, patients % ([1]; 1 mg/kg (N = 49)) | TEAE Rash, patients % ([1]; 1 mg/kg (N = 49))
(18.4) %: TEAE Infusion site extravasation, patients % ([1]; 1 mg/kg (N = 49)) | TEAE Infusion site pain, patients % ([1]; 1 mg/kg (N = 49))
(22.4) %: TEAE Headache, patients % ([1]; 1 mg/kg (N = 49))

Where two headings read alike, the source gives them in different places.
